# Laboratory results from PubChem BioAssay AID1465 (SRMLSC, 2008).
# This is one part of the list. Measured potencies and affinities stand elsewhere. Active and inactive are the calls of the source.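 The calls were made as follows: active = fold induction of absorbance versus untreated yeast above a set limit, then at least 30% activation at any dose in follow-up; inconclusive = repeats straddling the limit, or above it without dose testing; inactive = fold induction below the set limit.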
# Test: mitochondrial function rescue without frataxin homolog – Friedreich's ataxia, plus single-dose screen, dose response (AID 1465)
# Conditions: S. cerevisiae Yfh1-off respiration, WST-1 reduction, 72 h; at 50 µM; hits give high values
row,SMILES,fold induction
1,CS(=O)(=O)c1cc([N+](=O)[O-])c2no[n+]([O-])c2c1,inactive: 1.46
2,O=P(Nc1nccs1)(c1ccccc1)c1nc2ccccc2s1 (configuration not stated),inactive: 1.18
3,O=P(Nc1nccs1)(Oc1ccccc1)Oc1ccccc1,inactive: 0.98
4,CCOP1(=S)c2c(C)nn(CCC#N)c2N=C(c2ccccc2F)N1C (configuration not stated),inactive: 0.87
5,Nc1ccccc1[As](=O)(O)c1ccccc1,inactive: 0.92
6,O=C(O)COc1ccc([As](=O)(O)O)cc1[N+](=O)[O-],inactive: 1
7,NC(=O)Nc1ccc([As](=O)(O)O)cc1,inactive: 1.06
8,CN(C(=O)Cc1ccc(Cl)c(Cl)c1)[C@H]1CC[C@@]2(CCCO2)C[C@@H]1N1CCCC1,inactive: 1.02
9,O=[N+]([O-])c1ccc2c(c1)nnn2O,inactive: 0.97
10,CCOP1(=S)c2c(C)nn(CCC#N)c2N=C(c2ccc(F)cc2)N1C (configuration not stated),inactive: 0.98
11,CN(C(=O)Cc1ccccc1)[C@@H]1CC[C@]2(CCCO2)C[C@H]1N1CCCC1,inactive: 1.02
12,COc1cc(C(=O)NCC2(N3CCOCC3)CCCCC2)cc(Cl)c1OC(C)C,inactive: 1.04
13,O=[As](O)(O)c1cccnc1,inactive: 1.02
14,O=C(OC1CN2CCC1CC2)c1ccc(Cl)cc1 (configuration not stated),inactive: 1.01
15,O=[As](O)(c1cccc(O)c1)c1cccc(O)c1,inactive: 1.11
16,Cc1cccc(OCC(=O)OC2CN3CCC2CC3)c1 (configuration not stated),inactive: 0.96
17,CCCOP(=S)(Nc1nc(N)cc(=O)[nH]1)OCCC,inactive: 0.93
18,Nc1cccc2c([As](=O)(O)O)cccc12,inactive: 1.06
19,Cc1ccc(NCCc2c([N+](=O)[O-])cc([N+](=O)[O-])cc2[N+](=O)[O-])cc1,inactive: 1.24
20,CCOP(=O)(Nc1cccc2ccccc12)OCC,inactive: 1.08
21,COc1cc(C2NCCC3(OCCO3)C2(C)C)cc(OC)c1OC (configuration not stated),inactive: 0.88
22,CN(CCCl)Cc1cc(Cl)c(NC2=NCCN2)c(Cl)c1,inactive: 1.03
23,CCOP(=O)(Nc1ccc(C)cn1)OCC,inactive: 1.07
24,O=P1(Nc2ccccn2)COc2ccccc2OC1,inactive: 0.99
25,CC(C)(C)C(=O)NC(Sc1ncccn1)C(Cl)(Cl)Cl (configuration not stated),inactive: 1.02
26,Clc1n[nH]nc1-c1nn[nH][15n]1,inactive: 1.02

row,SMILES,fold induction
1,CC1(CBr)Cn2c(nc3ccccc3c2=O)S1 (configuration not stated),inactive: 1.13
2,O=[As](O)(c1ccccc1Br)c1ccccc1Br,inactive: 1.11
3,CC(C)/C=N\N=C(\N)N[N+](=O)[O-],inactive: 0.99
4,CN(C(=O)Cc1ccc(Cl)c(Cl)c1)[C@@H]1CCCC[C@H]1N1CCCC1,inactive: 1.05
5,CC1CCC(C(C)C)C(OP(=O)(Nc2ccccn2)c2ccccc2)C1 (configuration not stated),inactive: 1.01
6,Cc1nn(-c2ccccc2)c2c1P(=O)(N1CCOCC1)N(C)C(c1ccccc1)=N2 (configuration not stated),inactive: 1.01
7,O=C(/C=C/c1ccccc1)OC1CN2CCC1CC2 (configuration not stated),inactive: 1.01
8,CN(C)C1(CNC(=O)c2ccc(S(C)(=O)=O)cc2)CCCCC1,inactive: 0.96
9,O=P1(Nc2ncccn2)COc2ccccc2OC1,inactive: 1.05
10,O=P1(Nc2ccc(Br)cn2)COc2ccccc2OC1,inactive: 0.98
11,O=[As](O)(c1cccs1)c1cccs1,inactive: 1.15
12,Cc1ccc(OCC(=O)OC2CN3CCC2CC3)cc1 (configuration not stated),inactive: 0.88
13,Nc1cccc([As](=O)(O)c2ccccc2)c1,inactive: 1.02
14,CCOC(=O)Nc1ccc([As](=O)(O)O)c(O)c1,inactive: 1.03
15,Cc1cc(SC(NC(=O)c2ccccc2)C(Cl)(Cl)Cl)nc(C(C)C)n1 (configuration not stated),inactive: 0.79
16,CCOC(=O)Nc1cccc([As](=O)(O)O)c1,inactive: 1.03
17,O=[N+]([O-])c1ccc(Nc2ccc(Oc3ccc([N+](=O)[O-])cc3[N+](=O)[O-])cc2)c([N+](=O)[O-])c1,inactive: 1.03
18,O=P(Nc1ccccn1)(c1cccc2ccccc12)c1cccc2ccccc12,inactive: 0.96
19,Cc1cc(SC(NC=O)C(Cl)(Cl)Cl)ncn1 (configuration not stated),inactive: 0.97
20,COP1(=S)c2c(C)nn(CCC#N)c2N=C(c2ccc(F)cc2)N1C (configuration not stated),inactive: 1.1
21,CCOC(=O)c1ccc(NC(=O)C(C)(CCl)SC)cc1 (configuration not stated),inactive: 1.05
22,CCC(C)N(CC(C)C)C(=S)SC(NC(C)=O)C(Cl)(Cl)Cl (configuration not stated),inactive: 0.93
23,Cc1cc(=O)[nH]c(N[N+](=O)[O-])n1,inactive: 1.01
24,O=C(OC1CN2CCC1CC2)C12CC3CC(CC(C3)C1)C2 (configuration not stated),inactive: 1.03
25,Cc1c2c(nc3ccccc13)SC(C(Cl)Cl)C2 (configuration not stated),inactive: 0.69
26,COc1cc(I)ccc1[As](=O)(O)O,inactive: 0.99
